Laboratory results taken from patent US9458176B2, “Tetrahydroimidazo(1,5-D)[1,4]oxazepine derivative” (Eisai R&D Management Co., Ltd., priority 2013, dated 2016).
Read-outs that look alike come from different tables or passages of the source.

Protein sequences, listed by entry. Tags and fused reporters are not part of them. Residues count along the entry.
UniProt Q14416, 19-872 limits assumed: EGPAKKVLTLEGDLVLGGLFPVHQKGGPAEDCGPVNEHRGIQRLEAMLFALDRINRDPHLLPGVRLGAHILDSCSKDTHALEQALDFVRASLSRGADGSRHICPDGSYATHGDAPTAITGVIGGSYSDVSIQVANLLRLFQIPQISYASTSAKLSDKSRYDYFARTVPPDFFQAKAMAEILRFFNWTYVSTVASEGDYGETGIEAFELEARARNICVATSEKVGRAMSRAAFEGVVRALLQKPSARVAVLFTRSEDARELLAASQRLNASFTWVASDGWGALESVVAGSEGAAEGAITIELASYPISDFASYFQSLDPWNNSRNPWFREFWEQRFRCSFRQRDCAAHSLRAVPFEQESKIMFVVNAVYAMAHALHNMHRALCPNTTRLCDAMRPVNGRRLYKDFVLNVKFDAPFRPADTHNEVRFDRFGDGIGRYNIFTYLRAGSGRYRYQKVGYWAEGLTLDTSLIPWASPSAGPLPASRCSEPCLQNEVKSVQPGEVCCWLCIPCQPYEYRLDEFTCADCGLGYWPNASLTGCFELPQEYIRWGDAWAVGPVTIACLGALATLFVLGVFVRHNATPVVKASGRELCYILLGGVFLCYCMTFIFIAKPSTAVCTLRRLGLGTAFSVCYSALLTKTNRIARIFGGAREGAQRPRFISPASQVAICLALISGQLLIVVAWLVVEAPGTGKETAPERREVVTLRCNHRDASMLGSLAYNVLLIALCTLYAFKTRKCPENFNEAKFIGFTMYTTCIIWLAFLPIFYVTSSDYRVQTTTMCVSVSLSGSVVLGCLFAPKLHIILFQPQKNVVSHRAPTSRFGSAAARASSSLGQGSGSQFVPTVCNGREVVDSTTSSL

Target: human mGluR2 (Homo sapiens (Human), UniProt Q14416)
Assay: [35S]GTPγS binding assay (Affinity to mGluR2)
Details: read-out: GTPγS binding assay IC50, cell membrane fraction of HEK293 cells stably expressing human mGluR2, glutamic acid 10 μM
Procedure: (Preparation of Cell Membrane Fraction of HEK293 Cells Stably Expressing Human Metabotropic Glutamate Receptor 2 (mGluR2))
HEK293 cells stably expressing human mGluR2 and human glutamate transporter SLC1A3 were cultured in a Dulbecco's modified Eagle's medium with 10% fetal bovine serum (50 units/mL of penicillin, 50 μg/mL of streptomycin, 60 μg/mL of geneticin, 400 μg/mL of hygromycin B and 2 mM of glutamine) at 37° C. under 5% CO2. Confluent cell cultures were washed twice with PBS(−), and then scraped off with a cell scraper, and subjected to centrifugal separation at 4° C. and 1500 rpm for 5 minutes for collecting cells. The centrifuged sediment (cell pellet) was homogenized in a 20 mM HEPES buffer containing 10 mM EDTA (pH 7.4) by using sonicator and centrifuged at 4° C. and 1500×g for 30 minutes. The supernatant (soluble fraction) was subjected to the centrifugal separation at 4° C. and 40,000×g for 30 minutes, and thus, insoluble fraction was obtained. After additional centrifugally washing the obtained fraction with 20 mM HEPES buffer containing 10 mM EDTA (pH 7.4), the pellet was centrifugally suspended with a 20 mM HEPES buffer containing 0.1 mM EDTA, and the cell membrane fraction was obtained by the centrifugal separation at 4° C. and 40,000×g for 30 minutes. The thus obtained cell membrane fraction was suspended in a 20 mM HEPES buffer containing 0.1 mM EDTA in a protein concentration of 3 mg/mL, which was stored at −80° C.
([^35S]GTPγS Binding Assay)
The frozen cell membrane fraction prepared as described above was thawed before use, and the resultant was diluted with a buffer for a binding assay (final concentrations: 20 mM HEPES, 100 mM NaCl, 1 mM MgCl2, 3 μM GDP, 300 μg/mL saponin, 0.1% BSA). […] After the incubation, the plate was subjected to the centrifugal separation at 2,500 rpm and room temperature, and then, membrane cell binding radioactivity was measured with a top count. […]

Row | IC50 [nM] | IC50 (inhibition of specific [35S]GTPγS binding) [nM] | Structure (SMILES)
1 | 25.3 |  | COc1cc(-c2nc(-c3cc(C)nc(CF)c3)c3n2CCOCC3)ccc1Cl
2 |  | 18.1 | Cc1cc(-c2nc(-c3ccc(OC(F)(F)F)c(F)c3)n3c2CCO[C@H](C)C3)ccn1
3 | 19.4 |  | Cc1cc(-c2nc(-c3ccc(OC(F)(F)F)c(C)c3)n3c2CCOCC3)cc(C)n1
